Source: ChEMBL document CHEMBL3860065, “Synthesis and biological evaluation of azole-diphenylpyrimidine derivatives (AzDPPYs) as potent T790M mutant form of epidermal growth factor receptor inhibitors” (Bioorg Med Chem, 2016)

Amino acid sequences for entries named in this document (tags omitted). Residues count along the entry.
UniProt P00533, 25-1210 T790M/L858R limits assumed: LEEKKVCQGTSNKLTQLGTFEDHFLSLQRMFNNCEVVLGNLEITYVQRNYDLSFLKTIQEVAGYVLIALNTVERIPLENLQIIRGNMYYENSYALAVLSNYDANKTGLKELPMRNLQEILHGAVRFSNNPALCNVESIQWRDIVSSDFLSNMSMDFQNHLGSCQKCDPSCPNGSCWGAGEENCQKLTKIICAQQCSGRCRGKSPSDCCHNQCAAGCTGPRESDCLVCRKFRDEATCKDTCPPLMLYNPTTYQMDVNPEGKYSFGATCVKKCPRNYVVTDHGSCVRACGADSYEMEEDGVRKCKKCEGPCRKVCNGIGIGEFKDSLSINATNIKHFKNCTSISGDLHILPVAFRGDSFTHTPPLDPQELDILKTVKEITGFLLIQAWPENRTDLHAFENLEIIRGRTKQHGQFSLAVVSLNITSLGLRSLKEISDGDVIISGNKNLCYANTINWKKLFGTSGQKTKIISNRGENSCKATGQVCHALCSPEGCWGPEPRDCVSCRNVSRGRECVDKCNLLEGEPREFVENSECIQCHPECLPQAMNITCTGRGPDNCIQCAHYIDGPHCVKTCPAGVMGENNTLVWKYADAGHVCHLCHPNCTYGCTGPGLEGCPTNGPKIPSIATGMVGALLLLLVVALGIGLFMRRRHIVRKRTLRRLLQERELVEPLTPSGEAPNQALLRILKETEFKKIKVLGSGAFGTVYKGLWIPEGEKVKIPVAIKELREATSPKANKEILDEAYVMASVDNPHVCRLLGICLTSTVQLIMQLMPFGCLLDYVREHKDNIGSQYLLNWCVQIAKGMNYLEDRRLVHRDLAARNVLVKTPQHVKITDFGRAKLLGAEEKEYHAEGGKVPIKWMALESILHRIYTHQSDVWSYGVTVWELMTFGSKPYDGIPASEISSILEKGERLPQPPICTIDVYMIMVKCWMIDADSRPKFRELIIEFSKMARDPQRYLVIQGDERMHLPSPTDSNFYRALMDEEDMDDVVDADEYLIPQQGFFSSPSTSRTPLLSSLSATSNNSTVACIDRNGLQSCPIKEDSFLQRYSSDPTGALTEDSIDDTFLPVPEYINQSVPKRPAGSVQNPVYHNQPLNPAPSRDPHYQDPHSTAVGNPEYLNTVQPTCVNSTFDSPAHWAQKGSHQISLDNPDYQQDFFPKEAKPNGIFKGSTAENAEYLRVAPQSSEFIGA

Target: Epidermal growth factor receptor (Homo sapiens, UniProt P00533, L858R/T790M)
Assay: biochemical
Format: cell-based, Sf9

C=CC(=O)Nc1cccc(Nc2nc(Nc3ccc(NC(=O)Cn4ccnc4)cc3)ncc2[N+](=O)[O-])c1
pIC50: 6.93

pIC50: −log10 of the molar value.
